Reference: patent US8664400B2, “Triphenylamine derivatives useful as fluorophores in biology, in particular for two-photon microscopy” (Centre National de la Recherche Scientifique, priority 2006, dated 2014)

Assay: Emission and single-photon absorption properties in glycerol or sodium cacodylate buffer
Format: physicochemical
Conditions: in glycerol, at 474 nm

C[n+]1ccc(C=Cc2ccc(N(c3ccc(C=Cc4cc[n+](C)cc4)cc3)c3ccc(C=Cc4cc[n+](C)cc4)cc3)cc2)cc1.[I-].[I-].[I-] [TP-3Py, Tris[4-(2-N-methylpyridinium-4-ylvinyl)phenyl]amine iodide]
molar extinction coefficient (ε): 66 000 L/mol·cm
